The subject of the assay is SKBR-3 (HER2-overexpressing human breast cancer cell line). The assay can be described thus: Cancer cell proliferation assessment (Alamar Blue). The class given is cell-based. The conditions noted are these: SKBR-3 cells; Herceptin 0.5 mg/ml; FIG. 4. On the procedure: Cancer Cell Proliferation Assessment: SKBR-3 cells (ATCC, HTB3O, USA) were plated (1×10^4 cells in McCoy's 5 A medium/well) in quintuplicate and octuplicate for samples and control, respectively, in 96-well microplates and allowed to adhere overnight. […] At the time points indicated, the culture media were replaced by the phenol red-free media containing 10% of Alamar Blue. Cell proliferation was determined from the reduction in dye absorbance at 570 and 600 nm after 4 h of incubation.

The results in this text go back to patent US9248200B2, “Method of delivering an anti-cancer agent to a cell” (Agency for Science, Technology and Research, priority 2007, dated 2016).

On to “Herceptin: humanized monoclonal antibody against the HER2/neu (erbB2) receptor”, for which the “inhibition of cell growth” value is “inhibited”.
